Experiments:
[1] = molecular target: T1, guanylate cyclase-C (GC-C) (Homo sapiens, UniProt P25092); experiment: Competitive radioligand ([125I]-pSTa) binding assay on T84 cells; design: cell-surface GC-C receptors on human colonic epithelial (T84) cells; endogenous in cells; host or cells: T84 human colonic epithelial cells; conditions: competition with 170 pM [125I]-pSTa for cell-surface GC-C receptors on T84 cells; read-out: inhibition constant (Ki), relative binding affinity
Procedure: The relative binding affinities of linaclotide and Cys1-IMD to the guanylate cyclase-C receptor (GC-C) were determined using a competitive-binding assay in which the peptides competed with a known GC-C agonist, porcine-derived heat-stable enterotoxin (pSTa), for binding sites on cell-surface GC-C receptors on human colonic epithelial (T84) cells. The pSTa was radiolabeled with ^125I to enable measurement of its receptor binding. The competitive-binding assay was performed by adding various concentrations of each peptide (0.1 to 3,000 nM) to 0.20 mL reaction mixtures containing Dulbecco's modified Eagle's medium (DMEM), 0.5% bovine serum albumin (BSA), 2.0×10^5 T84 cells, and 170 pM [^125I]-pSTa (200,000 cpm). The data were used to construct competitive radioligand-binding curves and determine the relative binding affinities of linaclotide and Cys1-IMD, as measured by their IC50 and Ki values.

Sequences of proteins named here, by UniProt entry; tags and fusion partners are left off. Residues count along the entry.
UniProt P25092, 24-1073: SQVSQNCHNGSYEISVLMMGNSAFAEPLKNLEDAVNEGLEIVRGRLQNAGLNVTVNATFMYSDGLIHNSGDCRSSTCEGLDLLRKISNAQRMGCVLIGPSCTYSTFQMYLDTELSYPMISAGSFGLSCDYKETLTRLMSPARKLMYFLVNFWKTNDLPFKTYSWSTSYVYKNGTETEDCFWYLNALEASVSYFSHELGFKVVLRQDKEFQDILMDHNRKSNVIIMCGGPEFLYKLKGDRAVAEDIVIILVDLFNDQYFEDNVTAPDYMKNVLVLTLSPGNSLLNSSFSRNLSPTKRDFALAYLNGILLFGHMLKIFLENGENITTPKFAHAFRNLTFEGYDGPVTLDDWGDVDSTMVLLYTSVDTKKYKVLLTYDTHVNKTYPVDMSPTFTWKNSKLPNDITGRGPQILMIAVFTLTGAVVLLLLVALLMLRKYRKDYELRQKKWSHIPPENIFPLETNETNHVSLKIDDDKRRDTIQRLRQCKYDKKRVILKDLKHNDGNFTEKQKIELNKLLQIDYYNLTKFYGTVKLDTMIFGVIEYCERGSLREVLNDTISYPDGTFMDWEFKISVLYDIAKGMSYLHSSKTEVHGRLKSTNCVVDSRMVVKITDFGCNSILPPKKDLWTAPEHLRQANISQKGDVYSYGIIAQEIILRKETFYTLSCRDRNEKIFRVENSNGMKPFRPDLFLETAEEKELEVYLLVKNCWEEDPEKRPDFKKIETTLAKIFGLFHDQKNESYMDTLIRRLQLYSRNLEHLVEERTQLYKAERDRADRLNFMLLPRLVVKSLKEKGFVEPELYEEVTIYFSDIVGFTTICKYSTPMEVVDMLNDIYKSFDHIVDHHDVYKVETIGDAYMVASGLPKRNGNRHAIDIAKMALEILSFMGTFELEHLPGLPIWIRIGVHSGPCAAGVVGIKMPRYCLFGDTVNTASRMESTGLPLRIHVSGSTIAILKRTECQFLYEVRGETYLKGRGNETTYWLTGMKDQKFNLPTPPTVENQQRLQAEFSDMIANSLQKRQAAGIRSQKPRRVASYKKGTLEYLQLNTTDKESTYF

[2] = molecular target: T1, guanylate cyclase-C (GC-C); experiment: cGMP response in T84 cells (GC-C agonist activity); assay type: cell-based; design: tested for guanylate cyclase-C (GC-C) agonist activity in T84 cells; endogenous in cells; host or cells: T84 cells
Procedure: Linaclotide and Cys1-IMD were tested for guanylate cyclase-C (GC-C) agonist activity in T84 cells as follows. In each well of a 96-well plate, approximately 200,000 T84 cells/well was first incubated with 1 mM 3-isobutyl-1-methylxanthine (IBMX) in 0.18 mL of Dulbecco's modified Eagle's medium (DMEM) for 10 minutes at 37° C. Each peptide was diluted to final concentrations ranging from 0.1 to 10,000 nM, and 0.02 mL of each dilution was added in duplicate to a 96-well plate containing the T84 cells, for a final volume of 0.20 mL per well. The peptide reactions were incubated for 30 min at 37° C. Following the incubation, the supernatants were removed and discarded and the cells were lysed with cold 0.1 M hydrochloric acid (HCl) for 30 min on ice. The cell debris was removed by centrifugation and the concentration of guanosine 3′,5′-cyclic monophosphate (cyclic GMP) in each lysate was determined using liquid chromatography with tandem mass spectrometry. The data were used to construct dose-response curves and calculate half-maximal effective concentration (EC50) values for each test article.

## C[C@@H]1NC(=O)[C@@H]2CCCN2C(=O)[C@H](CC(N)=O)NC(=O)[C@@H]2CSSC[C@@H]3NCN(C3=O)[C@H]3CSSC[C@H](NC1=O)C(=O)N[C@@H]([C@@H](C)O)C(=O)NCC(=O)N[C@H](C(=O)N[C@@H](Cc1ccc(O)cc1)C(=O)O)CSSC[C@H](NC(=O)[C@H](Cc1ccc(O)cc1)NC(=O)[C@H](CCC(=O)O)NC3=O)C(=O)N2 [Cys1-IMD]
[1]
  Ki: 1.4 ± 0.5 nM
[2]
  EC50: 172 ± 32 nM
